Measured values from patent US20150202287A1, “COMBINATION THERAPIES COMPRISING ANTI-ERBB3 AGENTS” (Merrimack Pharmaceuticals, Inc., priority 2012, published 2015).

Legend:
[1] = system: NCI-N87-GFP-HRG cells; details: presence of endogenous heregulin, 0.04111152 μg/mL T-DM1, 72 h
Experimental: (§1) Cells were allowed to adhere 16-20 hours at +37° C., 5% CO2. […] All conditions were assayed in biological quadruplicates. Cells were incubated for 72 h at +37° C., 5% CO2.

[2] = system: NCI-N87-GFP cells; details: absence of endogenous heregulin, 0.1 μg/mL T-DM1, 72 h
Experimental: as §1

[3] = system: NCI-N87 cells; assay: T-DM1 and heregulin dose matrix cell viability, NCI-N87
Experimental: Cells were allowed to adhere 16-20 hours at +37° C., 5% CO2. Cells were stimulated for 4 hours by adding 5 μl of culture media containing recombinant human NRG-1-β1 EGF domain (HRG1) bringing the final HRG1 stimulation concentration to 0, 0.313, 0.625, 1.25, 2.5, 5 or 10 nM. […] All conditions were assayed in biological quadruplicates. Cells were incubated for 72 h at +37° C., 5% CO2. Cell viability was determined by CellTiter-Glo® Luminescent Cell Viability Assay by adding 20 μl of reconstituted CellTiter-Glo reagent per well, incubating plated for 10 minutes at RT in an orbital shaker and reading the luminescence signal using Biotek™ Synergy H1 Hybrid Reader.

Substance: ado-trastuzumab emtansine [T-DM1]
- reduction of cell viability [1]: approximately 47.3%
- reduction of cell viability [2]: approximately 54.6%
- cell viability ([3]; HRG 0 nM, T-DM1 0.001524 μg/ml, with MM-111 1 μM, 72 h): 95.68 % of control
- cell viability ([3]; HRG 0 nM, T-DM1 0.001524 μg/ml, without MM-111, 72 h): 93.37 % of control
- cell viability ([3]; HRG 0 nM, T-DM1 0.004572 μg/ml, with MM-111 1 μM, 72 h): 78.87 % of control
- cell viability ([3]; HRG 0 nM, T-DM1 0.004572 μg/ml, without MM-111, 72 h): 75.62 % of control
- cell viability ([3]; HRG 0 nM, T-DM1 0.013717 μg/ml, with MM-111 1 μM, 72 h): 64.24 % of control
- cell viability ([3]; HRG 0 nM, T-DM1 0.013717 μg/ml, without MM-111, 72 h): 51.2155 % of control
- cell viability ([3]; HRG 0 nM, T-DM1 0.041152 μg/ml, with MM-111 1 μM, 72 h): 46.35 % of control
- cell viability ([3]; HRG 0 nM, T-DM1 0.041152 μg/ml, without MM-111, 72 h): 50.04 % of control
- cell viability ([3]; HRG 0 nM, T-DM1 0.123457 μg/ml, with MM-111 1 μM, 72 h): 41.8017 % of control
- cell viability ([3]; HRG 0 nM, T-DM1 0.123457 μg/ml, without MM-111, 72 h): 42.65 % of control
- cell viability ([3]; HRG 0 nM, T-DM1 0.37037 μg/ml, with MM-111 1 μM, 72 h): 32.86 % of control
- cell viability ([3]; HRG 0 nM, T-DM1 0.37037 μg/ml, without MM-111, 72 h): 46.5761 % of control
- cell viability ([3]; HRG 0 nM, T-DM1 1.111111 μg/ml, with MM-111 1 μM, 72 h): 35.8 % of control
- cell viability ([3]; HRG 0 nM, T-DM1 1.111111 μg/ml, without MM-111, 72 h): 42.8517 % of control
- cell viability ([3]; HRG 0 nM, T-DM1 3.333333 μg/ml, with MM-111 1 μM, 72 h): 35.57 % of control
- cell viability ([3]; HRG 0 nM, T-DM1 3.333333 μg/ml, without MM-111, 72 h): 40.81 % of control
- cell viability ([3]; HRG 0 nM, T-DM1 10 μg/ml, with MM-111 1 μM, 72 h): 32.2 % of control
- cell viability ([3]; HRG 0 nM, T-DM1 10 μg/ml, without MM-111, 72 h): 43.85 % of control
- cell viability ([3]; HRG 0.313 nM, T-DM1 0.001524 μg/ml, with MM-111 1 μM, 72 h): 98.3686 % of control
- cell viability ([3]; HRG 0.313 nM, T-DM1 0.001524 μg/ml, without MM-111, 72 h): 100.3208 % of control
- cell viability ([3]; HRG 0.313 nM, T-DM1 0.004572 μg/ml, with MM-111 1 μM, 72 h): 87.84 % of control
- cell viability ([3]; HRG 0.313 nM, T-DM1 0.004572 μg/ml, without MM-111, 72 h): 92.59 % of control
- cell viability ([3]; HRG 0.313 nM, T-DM1 0.013717 μg/ml, with MM-111 1 μM, 72 h): 74.46 % of control
- cell viability ([3]; HRG 0.313 nM, T-DM1 0.013717 μg/ml, without MM-111, 72 h): 79.62 % of control
- cell viability ([3]; HRG 0.313 nM, T-DM1 0.041152 μg/ml, with MM-111 1 μM, 72 h): 52.5808 % of control
- cell viability ([3]; HRG 0.313 nM, T-DM1 0.041152 μg/ml, without MM-111, 72 h): 74.72 % of control
- cell viability ([3]; HRG 0.313 nM, T-DM1 0.123457 μg/ml, with MM-111 1 μM, 72 h): 44.83 % of control
- cell viability ([3]; HRG 0.313 nM, T-DM1 0.123457 μg/ml, without MM-111, 72 h): 64.7733 % of control
- cell viability ([3]; HRG 0.313 nM, T-DM1 0.37037 μg/ml, with MM-111 1 μM, 72 h): 41.53 % of control
- cell viability ([3]; HRG 0.313 nM, T-DM1 0.37037 μg/ml, without MM-111, 72 h): 50.76 % of control
- cell viability ([3]; HRG 0.313 nM, T-DM1 1.111111 μg/ml, with MM-111 1 μM, 72 h): 37.6864 % of control
- cell viability ([3]; HRG 0.313 nM, T-DM1 1.111111 μg/ml, without MM-111, 72 h): 55.8238 % of control
- cell viability ([3]; HRG 0.313 nM, T-DM1 3.333333 μg/ml, with MM-111 1 μM, 72 h): 34.51 % of control
- cell viability ([3]; HRG 0.313 nM, T-DM1 3.333333 μg/ml, without MM-111, 72 h): 57.25 % of control
- cell viability ([3]; HRG 0.313 nM, T-DM1 10 μg/ml, with MM-111 1 μM, 72 h): 36.02 % of control
- cell viability ([3]; HRG 0.313 nM, T-DM1 10 μg/ml, without MM-111, 72 h): 57.69 % of control
- cell viability ([3]; HRG 0.625 nM, T-DM1 0.001524 μg/ml, with MM-111 1 μM, 72 h): 108.5211 % of control
- cell viability ([3]; HRG 0.625 nM, T-DM1 0.001524 μg/ml, without MM-111, 72 h): 106.4739 % of control
- cell viability ([3]; HRG 0.625 nM, T-DM1 0.004572 μg/ml, with MM-111 1 μM, 72 h): 86.78 % of control
- cell viability ([3]; HRG 0.625 nM, T-DM1 0.004572 μg/ml, without MM-111, 72 h): 106.0159 % of control
- cell viability ([3]; HRG 0.625 nM, T-DM1 0.013717 μg/ml, with MM-111 1 μM, 72 h): 66.86 % of control
- cell viability ([3]; HRG 0.625 nM, T-DM1 0.013717 μg/ml, without MM-111, 72 h): 84.04 % of control
- cell viability ([3]; HRG 0.625 nM, T-DM1 0.041152 μg/ml, with MM-111 1 μM, 72 h): 55.33 % of control
- cell viability ([3]; HRG 0.625 nM, T-DM1 0.041152 μg/ml, without MM-111, 72 h): 61.45 % of control
- cell viability ([3]; HRG 0.625 nM, T-DM1 0.123457 μg/ml, with MM-111 1 μM, 72 h): 45.12 % of control
- cell viability ([3]; HRG 0.625 nM, T-DM1 0.123457 μg/ml, without MM-111, 72 h): 71.29 % of control
- cell viability ([3]; HRG 0.625 nM, T-DM1 0.37037 μg/ml, with MM-111 1 μM, 72 h): 40.0349 % of control
- cell viability ([3]; HRG 0.625 nM, T-DM1 0.37037 μg/ml, without MM-111, 72 h): 58.91 % of control
- cell viability ([3]; HRG 0.625 nM, T-DM1 1.111111 μg/ml, with MM-111 1 μM, 72 h): 38.28 % of control
- cell viability ([3]; HRG 0.625 nM, T-DM1 1.111111 μg/ml, without MM-111, 72 h): 65.075 % of control
- cell viability ([3]; HRG 0.625 nM, T-DM1 3.333333 μg/ml, with MM-111 1 μM, 72 h): 38.6461 % of control
- cell viability ([3]; HRG 0.625 nM, T-DM1 3.333333 μg/ml, without MM-111, 72 h): 62.78 % of control
- cell viability ([3]; HRG 0.625 nM, T-DM1 10 μg/ml, with MM-111 1 μM, 72 h): 36.36 % of control
- cell viability ([3]; HRG 0.625 nM, T-DM1 10 μg/ml, without MM-111, 72 h): 67.86 % of control
- cell viability ([3]; HRG 1.25 nM, T-DM1 0.001524 μg/ml, with MM-111 1 μM, 72 h): 107.8277 % of control
- cell viability ([3]; HRG 1.25 nM, T-DM1 0.001524 μg/ml, without MM-111, 72 h): 102.2426 % of control
- cell viability ([3]; HRG 1.25 nM, T-DM1 0.004572 μg/ml, with MM-111 1 μM, 72 h): 99.95 % of control
- cell viability ([3]; HRG 1.25 nM, T-DM1 0.004572 μg/ml, without MM-111, 72 h): 94.16 % of control
- cell viability ([3]; HRG 1.25 nM, T-DM1 0.013717 μg/ml, with MM-111 1 μM, 72 h): 73.38 % of control
- cell viability ([3]; HRG 1.25 nM, T-DM1 0.013717 μg/ml, without MM-111, 72 h): 81.15 % of control
- cell viability ([3]; HRG 1.25 nM, T-DM1 0.041152 μg/ml, with MM-111 1 μM, 72 h): 51.01 % of control
- cell viability ([3]; HRG 1.25 nM, T-DM1 0.041152 μg/ml, without MM-111, 72 h): 64.9 % of control
